# Results reported in article PMC10748125 (Viruses, 2023).
# System: HCoV-NL63
# Assay: rNTP competitive inhibition assay
# Type: cell-based
# Details: VV116 2 μM or HS 300 μg/mL with different concentrations of rNTP; 24 h post-infection
substance,measurement,value
heparan sulfate,Effect of added rNTP on anti-coronavirus activity (NP Western blot),no effect
